Tests used:
[1] = target: Epithelial discoidin domain-containing receptor 1 (Homo sapiens, UniProt Q08345); assay: Inhibition of human wild type partial length DDR1 (R565 to V876 residue) expressed in bacterial expression system assessed as residual activity at 1 uM by Kinomescan method relative to control
Ephrin type-A receptor 7 = Ephrin type-A receptor 7 (Homo sapiens, UniProt Q15375); assay: Inhibition of human wild type partial length EphA7 (Y608 to S912 residues) expressed in bacterial expression system assessed as residual activity 1 uM by Kinomescan method relative to control
Angiopoietin-1 receptor = Angiopoietin-1 receptor (Homo sapiens, UniProt Q02763); assay: Inhibition human wild type partial length Tie2 (N804 to T1112 residues) expressed in bacterial expression system assessed as residual activity at 1 uM by Kinomescan method relative to control

Sequences of proteins named here, by UniProt entry; tags and fusion partners are left off. A change or cut given only in a name is not applied to a line headed by its entry.
UniProt Q08345: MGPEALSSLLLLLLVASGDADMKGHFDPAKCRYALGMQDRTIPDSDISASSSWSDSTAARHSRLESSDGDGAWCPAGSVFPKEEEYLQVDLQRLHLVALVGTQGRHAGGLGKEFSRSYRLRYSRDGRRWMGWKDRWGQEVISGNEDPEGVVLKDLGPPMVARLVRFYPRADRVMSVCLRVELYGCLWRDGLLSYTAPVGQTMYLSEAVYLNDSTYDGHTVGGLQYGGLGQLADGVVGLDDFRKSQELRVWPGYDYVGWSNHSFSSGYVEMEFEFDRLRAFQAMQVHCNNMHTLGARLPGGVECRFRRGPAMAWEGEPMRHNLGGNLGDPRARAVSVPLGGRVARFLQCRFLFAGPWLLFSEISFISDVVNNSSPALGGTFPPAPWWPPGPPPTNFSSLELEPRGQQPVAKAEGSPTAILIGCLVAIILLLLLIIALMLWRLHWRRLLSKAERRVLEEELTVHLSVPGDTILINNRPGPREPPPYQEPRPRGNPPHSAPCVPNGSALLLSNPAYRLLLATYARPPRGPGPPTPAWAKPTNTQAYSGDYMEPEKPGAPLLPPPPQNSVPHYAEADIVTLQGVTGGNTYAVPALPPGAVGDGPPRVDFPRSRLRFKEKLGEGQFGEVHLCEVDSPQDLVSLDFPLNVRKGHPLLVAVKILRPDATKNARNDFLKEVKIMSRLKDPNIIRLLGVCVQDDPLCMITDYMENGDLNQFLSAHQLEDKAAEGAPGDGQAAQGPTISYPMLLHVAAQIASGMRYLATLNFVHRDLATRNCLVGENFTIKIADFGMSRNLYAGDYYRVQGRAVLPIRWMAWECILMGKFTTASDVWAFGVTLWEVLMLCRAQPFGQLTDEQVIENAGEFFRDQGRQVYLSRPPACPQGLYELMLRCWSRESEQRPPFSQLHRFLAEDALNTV
UniProt Q15375: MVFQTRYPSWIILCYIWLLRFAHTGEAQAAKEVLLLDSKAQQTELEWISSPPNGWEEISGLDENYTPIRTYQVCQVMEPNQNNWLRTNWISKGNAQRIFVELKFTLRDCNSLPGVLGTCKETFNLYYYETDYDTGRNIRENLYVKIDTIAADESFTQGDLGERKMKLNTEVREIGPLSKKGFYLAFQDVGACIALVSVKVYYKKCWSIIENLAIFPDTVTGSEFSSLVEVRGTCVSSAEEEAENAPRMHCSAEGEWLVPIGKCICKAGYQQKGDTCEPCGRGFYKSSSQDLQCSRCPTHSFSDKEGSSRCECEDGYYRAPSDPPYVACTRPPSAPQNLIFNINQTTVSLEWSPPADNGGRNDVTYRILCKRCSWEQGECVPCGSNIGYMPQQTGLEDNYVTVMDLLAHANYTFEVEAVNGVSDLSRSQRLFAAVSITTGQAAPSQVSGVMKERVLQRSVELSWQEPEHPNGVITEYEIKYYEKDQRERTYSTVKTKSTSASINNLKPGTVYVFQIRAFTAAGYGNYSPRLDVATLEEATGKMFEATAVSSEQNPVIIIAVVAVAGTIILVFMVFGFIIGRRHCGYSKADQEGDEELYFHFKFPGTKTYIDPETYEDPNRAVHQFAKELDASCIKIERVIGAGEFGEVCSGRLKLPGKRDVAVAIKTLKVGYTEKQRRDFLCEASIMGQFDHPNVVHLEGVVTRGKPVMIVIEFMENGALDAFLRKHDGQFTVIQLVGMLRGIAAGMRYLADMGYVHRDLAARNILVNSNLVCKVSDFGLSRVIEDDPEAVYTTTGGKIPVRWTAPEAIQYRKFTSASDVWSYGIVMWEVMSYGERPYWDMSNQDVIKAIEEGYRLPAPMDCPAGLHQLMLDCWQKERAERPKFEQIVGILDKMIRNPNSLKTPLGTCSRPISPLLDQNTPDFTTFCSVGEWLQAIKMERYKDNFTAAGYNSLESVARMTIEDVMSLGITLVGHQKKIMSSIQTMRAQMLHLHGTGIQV
UniProt Q02763: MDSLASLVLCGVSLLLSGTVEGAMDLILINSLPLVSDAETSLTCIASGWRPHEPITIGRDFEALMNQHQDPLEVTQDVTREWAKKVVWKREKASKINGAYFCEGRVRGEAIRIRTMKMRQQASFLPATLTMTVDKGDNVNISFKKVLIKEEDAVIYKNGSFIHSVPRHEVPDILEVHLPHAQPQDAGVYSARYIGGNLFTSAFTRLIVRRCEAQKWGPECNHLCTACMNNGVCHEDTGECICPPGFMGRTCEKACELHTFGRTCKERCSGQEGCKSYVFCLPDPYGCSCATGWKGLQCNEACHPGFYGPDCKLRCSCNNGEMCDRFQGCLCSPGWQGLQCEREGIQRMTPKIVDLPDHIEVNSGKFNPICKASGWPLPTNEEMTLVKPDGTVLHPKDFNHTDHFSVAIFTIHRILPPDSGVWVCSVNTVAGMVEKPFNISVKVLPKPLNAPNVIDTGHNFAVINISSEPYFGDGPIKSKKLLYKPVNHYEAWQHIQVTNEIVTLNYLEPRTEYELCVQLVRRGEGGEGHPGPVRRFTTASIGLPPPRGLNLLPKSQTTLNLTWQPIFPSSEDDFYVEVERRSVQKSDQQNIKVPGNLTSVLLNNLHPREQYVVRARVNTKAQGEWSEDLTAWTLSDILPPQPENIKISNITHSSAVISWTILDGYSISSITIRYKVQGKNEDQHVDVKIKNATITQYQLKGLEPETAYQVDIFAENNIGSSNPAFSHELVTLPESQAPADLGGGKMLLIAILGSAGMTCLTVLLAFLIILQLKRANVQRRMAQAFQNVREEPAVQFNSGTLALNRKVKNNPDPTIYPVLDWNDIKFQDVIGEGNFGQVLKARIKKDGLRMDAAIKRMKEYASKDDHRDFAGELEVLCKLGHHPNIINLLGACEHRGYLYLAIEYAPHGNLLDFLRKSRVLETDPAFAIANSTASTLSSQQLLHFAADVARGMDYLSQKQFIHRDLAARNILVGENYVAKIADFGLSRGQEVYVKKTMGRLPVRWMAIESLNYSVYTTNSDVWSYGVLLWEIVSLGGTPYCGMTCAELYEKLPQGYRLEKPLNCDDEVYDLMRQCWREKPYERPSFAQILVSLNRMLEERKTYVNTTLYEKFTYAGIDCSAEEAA

Activity [1]: 9%
Activity (Ephrin type-A receptor 7): 2%
Activity (Angiopoietin-1 receptor): 9%
Structure (SMILES): Cc1cn(-c2cc(NC(=O)c3cc4cc(c3C)C#Cc3cnc5ccc(nn35)N(C)CCNC(=O)CCCCO4)cc(C(F)(F)F)c2)cn1
